Assay results from article PMC3103436 (Journal of Translational Medicine, 2011).

System: COc1ccc2cc3[n+](cc2c1OC)CCc1cc2c(cc1-3)OCO2
Test: cells, lysate or membranes named
Conditions: 25.0 °C

CYP3A4 (Homo sapiens) was tested, and the Km was 27.8 ± 0.79 µM and 27.1 ± 1.03 µM.

Several values for one entry are separate records, joined by “and”; a condition that tells them apart may be missing. Equal entries are not always repeated.
